Values of other authors as cited in paper PMC6608616, “Conservation of the structure and function of bacterial tryptophan synthases” (2019).

System: EcTrpAB
Settings: previously characterized, ref Lane & Kirschner, 1983; cited from earlier work

Question: Which “K m for serine” value does the source give for `N[C@@H](CO)C(=O)O` here?
Answer: 370 µM
